Drawing on PMC6435542, “Cysteine modifiers suggest an allosteric inhibitory site on the CAL PDZ domain” (Bioscience Reports, 2018), this text covers Kd for one molecule.

The target in the assay is CAL (CFTR-associated ligand) PDZ domain, tag-free CALP (UniProt Q9HD26-2 276-362). The assay can be described thus: fluorescence polarisation; apparent KD; protein treated with DMSO (control), dialysed, serial dilutions of protein with the reporter F*-iCAL36; 25 mM sodium phosphate, 150 mM sodium chloride, 0.02% sodium azide, pH 6.8; room temperature. To be noted: both partners purified. A general note: In fluorescence polarisation assays a small probe gives low polarisation when free and higher when bound to something large.

B1: F*-iCAL36, fluorescein-labelled peptide inhibitor iCAL36 (peptide)
peptide: ANSRWPTSII
modifications: N-terminal fluorescein coupled via an amino-hexanoic acid linker
notes: also called reporter ligand; source: synthetic peptide
As for B1, the Kd came out at 1290 nM.
